Measured values published in patent publication US6555522B1, “Peptides and other small molecules derived from regions of interacting proteins and uses thereof” (Mount Sinai School of Medicine of the City of New York, priority 1998, dated 2003).

By UniProt entry, the sequences of proteins in these tests, tags left out. Where a name states a change or a piece, a line headed by the entry shows the natural chain unless it says otherwise.
UniProt P19754: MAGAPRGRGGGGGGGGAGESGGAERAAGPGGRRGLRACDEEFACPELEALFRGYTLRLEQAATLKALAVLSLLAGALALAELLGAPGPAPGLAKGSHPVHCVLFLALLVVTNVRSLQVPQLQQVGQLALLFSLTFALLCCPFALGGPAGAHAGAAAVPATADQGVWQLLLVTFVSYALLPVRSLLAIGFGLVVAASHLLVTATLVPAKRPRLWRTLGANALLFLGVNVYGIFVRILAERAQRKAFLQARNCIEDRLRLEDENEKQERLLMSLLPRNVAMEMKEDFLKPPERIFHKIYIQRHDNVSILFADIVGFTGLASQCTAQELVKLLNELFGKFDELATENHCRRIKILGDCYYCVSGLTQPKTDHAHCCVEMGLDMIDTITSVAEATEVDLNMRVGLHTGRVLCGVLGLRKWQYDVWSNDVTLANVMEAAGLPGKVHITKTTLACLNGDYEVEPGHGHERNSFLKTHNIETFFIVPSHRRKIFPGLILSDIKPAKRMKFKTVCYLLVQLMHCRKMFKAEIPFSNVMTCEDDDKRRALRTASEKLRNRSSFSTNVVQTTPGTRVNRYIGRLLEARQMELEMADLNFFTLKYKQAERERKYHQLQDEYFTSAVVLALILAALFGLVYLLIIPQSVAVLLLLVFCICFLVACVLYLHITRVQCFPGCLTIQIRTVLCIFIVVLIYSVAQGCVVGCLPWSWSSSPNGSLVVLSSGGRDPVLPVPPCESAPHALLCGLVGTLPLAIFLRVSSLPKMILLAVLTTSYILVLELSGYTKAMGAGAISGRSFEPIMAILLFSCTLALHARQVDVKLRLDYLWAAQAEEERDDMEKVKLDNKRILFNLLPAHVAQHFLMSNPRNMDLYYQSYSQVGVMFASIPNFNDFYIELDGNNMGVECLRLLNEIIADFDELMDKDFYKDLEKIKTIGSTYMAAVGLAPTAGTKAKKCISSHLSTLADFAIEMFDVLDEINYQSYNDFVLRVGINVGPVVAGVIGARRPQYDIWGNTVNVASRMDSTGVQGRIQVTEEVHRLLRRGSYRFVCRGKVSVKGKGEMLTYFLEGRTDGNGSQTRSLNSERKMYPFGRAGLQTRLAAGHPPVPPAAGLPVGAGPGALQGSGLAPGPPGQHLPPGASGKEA

Biological target: T1, adenylyl cyclase 1 (AC1) (Bos taurus, UniProt P19754)
T1 construct: made in house; host or cells: Sf9 cells (baculovirus); membranes used
Assay: Adenylyl cyclase assay, recombinant AC1 in Sf9 cell membranes
Assay type: biochemical, bovine
Details: peptide at 100 μM; CaM 100 nM; read-out: inhibition of Ca2+/CaM-stimulated AC1 activity by peptide itself
Excerpt: Expression of G-Protein Subunits And Adenylyl Cyclases. Gβγ was purified from bovine brain (Dingus et al., 1994, Meth. Enzymol. 237, 457-471). Q227L-Gαs was expressed in rabbit reticulocyte lysates. AC2 was expressed in Sf9 cells by infection with recombinant baculovirus (Jacobowitz and Iyengar, 1994, Proc. Natl. Acad. Sci. U.S.A. 91, 10630-10634). AC2 assays have been described (Chen et al., 1995, Science 268, 1166-1169). Bovine AC1 (Jacobowitz et al., 1993, J. Biol. Chem. 268, 3829-3832) was epitope tagged at the N terminus with the FLAG epitope (Jacobowitz and Iyengar, 1994, Proc. Natl. Acad. Sci. U.S.A. 91, 10630-10634) and expressed in Sf9 cells by baculovirus infection.
Adenylyl Cyclase Assays. AC2 assays have been described (Chen et al., 1995, Science 268, 1166-1169). When required the peptides were mixed with adenylyl cyclase containing membranes and held on ice for 10 min prior to assays. Approximately 1-4 μg of AC2 Sf9 cell membranes per assay tube was used. All assays contained a mixture of protease inhibitors. The final concentration of each inhibitor was leupeptin at 3.2 μg/ml, aprotinin at 2 μg/ml, phenanthroline at 1.0 mM, and phenylmethylsulfonyl fluoride at 1.0 mM. To study Gβγ inhibition, AC1-containing Sf9 cell membranes (1-4 μg per assay tube) was used. […]

inhibition at 100 µM: 50 to 70%
Compound: CC[C@H](C)[C@H](NC(=O)[C@H](C)NC(=O)[C@H](Cc1c[nH]cn1)NC(=O)[C@@H](NC(=O)[C@H](CCCCN)NC(=O)[C@H](CC(N)=O)NC(=O)[C@@H](NC(=O)[C@@H](N)[C@@H](C)O)[C@@H](C)O)C(C)C)C(=O)N1CCC[C@H]1C(=O)N[C@@H](CC(C)C)C(=O)N[C@@H](CCCNC(=N)N)C(=O)N[C@@H](CO)C(=O)N[C@@H](CO)C(=O)N[C@@H](Cc1c[nH]c2ccccc12)C(=O)N[C@H](C(=O)N[C@@H](CCSC)C(=O)N[C@H](C(=O)N[C@@H](CS)C(=O)N[C@@H](C)C(=O)N[C@@H](Cc1ccc(O)cc1)C(=O)O)[C@@H](C)O)C(C)C [Gβ86-105]
